# scFv variants of Ab-14 (heavy chain) against a SARS-CoV-2 spike peptide

Data: MIT Lincoln Laboratory AlphaSeq set, Engelhart et al. 2022, doi:10.1038/s41597-022-01779-4, as distributed in FLAb.

All variants were tested on one target, the spike HR2 peptide PDVDLGDISGINAS (SARS-CoV-2).

Ab-14 is the parent antibody, in scFv form: VH, then three GGGGS repeats, then VL. The light chain is unchanged in all variants.
VH: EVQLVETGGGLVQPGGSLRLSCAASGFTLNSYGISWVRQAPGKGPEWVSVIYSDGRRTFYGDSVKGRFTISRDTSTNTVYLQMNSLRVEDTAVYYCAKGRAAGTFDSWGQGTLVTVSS
VL: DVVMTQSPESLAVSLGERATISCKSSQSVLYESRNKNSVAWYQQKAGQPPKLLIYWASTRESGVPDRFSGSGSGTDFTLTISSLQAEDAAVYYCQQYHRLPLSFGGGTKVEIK

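The starting antibody came from a phage panning campaign against this peptide. In library AAYL49, one, two or three CDR residues were substituted; doubles and triples were drawn at random. The assay is AlphaSeq: two haploid yeast populations carry antibody and antigen on their surface. The frequency of each diploid, read from paired DNA barcodes, reflects how well the two displayed proteins bind. Each replicate has its own calibration line, from reference interactions of the BCL2 family. Each pool was mated in three replicate cultures.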

Each variant is given by its three heavy chain CDRs, as the data file delimits them; those of the parent are GFTLNSYGIS, VIYSDGRRTFYGDSVK, GRAAGTFDS.
Values are log10 of the apparent Kd in nM; lower means stronger binding.
The mean shown is taken over the replicates in which the pair was detected.
An entry "nd" has no value in the source: the pair was not observed among the diploids in that replicate. This suggests poor binding but is not conclusive.
Parent in this assay: reference entry 0.65, copy in this library 4.11 (one replicate of three).

CDR-H1,CDR-H2,CDR-H3,"replicates, log10 nM","log10 Kd (nM), mean",empty controls
GFTLVSDGIS,VIYSMGRRTFYGDSVK,GRAAGTFDS,nd / 3.20 / 5.25,4.23,4 of 9 (4.20)
GFTLNSYGWS,VIYLDGRRTFYGDSVC,GRAAGTFDS,nd / nd / nd,nd,1 of 9 (2.67)
GFYLNQYSIS,VIYSDGRRTFYGDSVK,GRAAGTFDS,nd / nd / 4.94,4.94,5 of 9 (4.27)
GFPLNSYGIS,VIYSDGRRTFYGDSVK,GRHAGTIDS,nd / nd / 5.33,5.33,2 of 9 (2.56)
GFTLNSCGIS,VIYSDGRRTFYGDSCK,GRWAGTFDS,3.14 / 2.65 / 4.66,3.49,2 of 9 (4.14)
GFTLNSYGIS,VIYQDGRTTFYLDSVK,GRAAGTFDS,4.52 / 3.09 / 4.10,3.90,2 of 9 (4.14)
GFTLNSYGIS,VIYSDCRVTRYGDSVK,GRAAGTFDS,nd / nd / nd,nd,1 of 9 (2.96)
GFTVNSYGIS,VIYMDGRRTFYGDSVK,GRAAGTFDQ,nd / nd / nd,nd,0 of 9
GFTLNSYGIS,VIYHDGRRTNYTDSVK,GRAAGTFDS,nd / nd / nd,nd,0 of 9
GFTLMSYGIS,LIYSDGRRPFYGDSVK,GRAAGTFDS,3.61 / nd / nd,3.61,4 of 9 (4.52)
GFTLNSYGIS,VIYKDGCRTFYGDSVK,RRAAGTFDS,2.81 / nd / nd,2.81,0 of 9
GFCENSYGIS,VIYSDGRRTKYGDSVK,GRAAGTFDS,nd / nd / nd,nd,0 of 9
GFTLNSYLIS,VIYSDGRRTFYGDSNK,GRAAGTYDS,nd / nd / nd,nd,1 of 9 (3.95)
GFTHNSYGIS,VIYCDGRRTFYGESVK,GRAAGTFDS,4.10 / nd / nd,4.10,1 of 9 (3.13)
GFTLNSNGIS,VIYSDPRRTFYGDSVK,GRAAGTFDP,4.82 / nd / nd,4.82,2 of 9 (4.30)
GFVLNSYGIS,VIYSDGRRTFYGDSVK,GRRAGYFDS,nd / nd / nd,nd,2 of 9 (3.54)
GFTLNSYGIS,VIYSDGARTFYGDSVK,GRAAGTFDS,nd / 3.71 / nd,3.71,1 of 9 (4.52)
GFTLNSYGIS,NIYSFGRRTFYGDQVK,GRAAGTFDS,nd / nd / nd,nd,0 of 9
GFTLNSYGII,VIYSDGRRTFYMDSVK,GRAAGTFQS,nd / nd / nd,nd,0 of 9
GHTLNSYGIS,VIKSDGRRTFYGLSVK,GRAAGTFDS,nd / nd / nd,nd,0 of 9
GFTLNSYGIS,AINSDGRRTFYGDSVK,GRAAGTFDA,4.85 / nd / 5.20,5.03,0 of 9
GFTLNSYRIH,VIYSDGRRTFYLDSVK,GRAAGTFDS,nd / nd / nd,nd,0 of 9
GFCLNSYGKS,VIYSDGRRTFYGDSQK,GRAAGTFDS,nd / 4.80 / nd,4.80,0 of 9
GFTLNSYGIS,VIYSDGRRTFYGDSVK,GTAAGTFYS,nd / nd / nd,nd,1 of 9 (4.17)
GFTLNSYGIS,VIYSDGRRTFYGDSMK,GRAAATFDS,nd / nd / nd,nd,0 of 9
GFTLNSYGVS,VIYSDGRRTFYGDSVK,GTAAGTFDS,0.77 / 0.83 / 0.92,0.84,3 of 9 (4.44)
GFTLNSYGIS,VIYSDGRRYFYGDFVK,GRAAGTFDS,4.29 / nd / nd,4.29,2 of 9 (4.35)
GFTLNSYGIS,VIYSDWRRTFYGDSVK,GRAAGTFDS,nd / nd / nd,nd,0 of 9
GFTLNSYGIS,VIYSDGRRTFYGDSVF,NRACGTFDS,nd / nd / nd,nd,0 of 9
GFTLSSYGIS,VIYSDGRRTDYGDSVK,GRAAGTFSS,nd / nd / nd,nd,0 of 9
GFTLNSYGIS,VIYSDGRRTFYGDSVK,GRARSQFDS,nd / nd / nd,nd,0 of 9
GFTLNSYGIS,VIYSDGRRTMYGDSVK,ARAAGTFDS,5.74 / nd / 5.88,5.81,6 of 9 (4.78)
GFTLNSYKIS,VIYSDDRRTFYGDSVK,GRAAGTHDS,4.10 / nd / nd,4.10,0 of 9
GFTLNSYGHS,VIFSDGRRTFYGDSVK,GRAAGTEDS,nd / nd / nd,nd,2 of 9 (2.77)
GFTCQSYGIS,VIYSDGRRTFYGDSVK,GRAKGTFDS,nd / nd / 3.20,3.20,0 of 9
GFTLNSYGIS,VIYSDGRRTKYGLSVK,DRAAGTFDS,nd / nd / nd,nd,1 of 9 (2.71)
GFTLNSYGFS,VIYSDGRRSFYGDSVK,GRADGTFDS,1.80 / 2.23 / 3.03,2.35,0 of 9
GFTLNSYGIS,VIYSDGRRTFYGPVNK,GRAAGTFDS,nd / nd / 4.97,4.97,0 of 9
GFTLNSYGIY,VIYSDHRRTFYGDYVK,GRAAGTFDS,nd / nd / nd,nd,0 of 9
GFTLNSYGIS,VIYSDGDRTFYGDSVA,GRAAGTFDP,1.91 / 2.86 / 2.31,2.36,0 of 9
GFTLNSYGIS,VIYSDGRRTFYGDSVL,GQAAGTFDW,nd / 3.69 / nd,3.69,0 of 9
GFRLNSYGIS,VIYSDGRRTFYGDSVK,GQIAGTFDS,0.39 / 0.54 / 0.43,0.45,0 of 9
GFTLNSYGIS,VIYSDGRRTHYGGSVK,GRAAGTFDS,3.94 / nd / 2.26,3.10,1 of 9 (3.52)
GFTLNSYGIS,VIYSDGRRFFYGDSVK,GRSFGTFDS,2.21 / 1.82 / 3.30,2.44,3 of 9 (3.76)
GFTLNSYGIS,VIYSDGRRTFYGDSTK,GRAAGTFPS,nd / nd / 3.43,3.43,3 of 9 (4.16)
KFTLNSYGIS,VSYSDGRRTFYGDSVK,GRAAGEFDS,4.22 / nd / nd,4.22,5 of 9 (4.75)
GFTLNSYGIS,VIRSDGRRTFYGDSVM,GRAAGTFDS,nd / 3.73 / nd,3.73,0 of 9

The 7 strongest on average among those seen in every replicate, once more:

CDR-H1	CDR-H2	CDR-H3	replicates, log10 nM	log10 Kd (nM), mean	empty controls
GFRLNSYGIS	VIYSDGRRTFYGDSVK	GQIAGTFDS	0.39 / 0.54 / 0.43	0.45	0 of 9
GFTLNSYGVS	VIYSDGRRTFYGDSVK	GTAAGTFDS	0.77 / 0.83 / 0.92	0.84	3 of 9 (4.44)
GFTLNSYGFS	VIYSDGRRSFYGDSVK	GRADGTFDS	1.80 / 2.23 / 3.03	2.35	0 of 9
GFTLNSYGIS	VIYSDGDRTFYGDSVA	GRAAGTFDP	1.91 / 2.86 / 2.31	2.36	0 of 9
GFTLNSYGIS	VIYSDGRRFFYGDSVK	GRSFGTFDS	2.21 / 1.82 / 3.30	2.44	3 of 9 (3.76)
GFTLNSCGIS	VIYSDGRRTFYGDSCK	GRWAGTFDS	3.14 / 2.65 / 4.66	3.49	2 of 9 (4.14)
GFTLNSYGIS	VIYQDGRTTFYLDSVK	GRAAGTFDS	4.52 / 3.09 / 4.10	3.90	2 of 9 (4.14)

Nonspecific signal, from three strains lacking the peptide, appeared in 15% of pairings of library AAYL49, centred on 4.06 (5% of these signals below 2.83); values are not corrected for it. For each scFv, signals with the empty controls are counted beside the result, with their mean in brackets.